In US20240293537A1, “A[…]-GRAFTED LAURYL GAMMA-POL[…] USE THEREOF” (JIANGSU ACADEMY OF AGRICULTURAL SCIENCES, priority 2021, published 2024):

Assays:
[1] = 20 mg in 3 mL of DMSO, ethanol, DMF and acetone
[2] = system: mouse macrophage RAW 264.7; conditions: RAW 264.7, 24 h, FIP solution less than 1000 μg/mL

## fluorescein-labeled amphiphilic imiquimod-grafted lauryl γ-polyglutamate [FIP]
[1]
  solubility in solvent phase: dissolved completely
[2]
  cell apoptosis / cell survival: no cell apoptosis was observed

## amphiphilic imiquimod-grafted lauryl γ-polyglutamate [γ-PGA-R837-LA]
[1]
  solubility in solvent phase: dissolved completely
